Reference: patent US20250163068A1, “COMPOUNDS AND THEIR METHODS OF USE” (Praxis Precision Medicines, Inc., priority 2016, published 2025)

Protein sequences, listed by entry. Tags and fused reporters are not part of them.
UniProt Q9UQD0, whole entry: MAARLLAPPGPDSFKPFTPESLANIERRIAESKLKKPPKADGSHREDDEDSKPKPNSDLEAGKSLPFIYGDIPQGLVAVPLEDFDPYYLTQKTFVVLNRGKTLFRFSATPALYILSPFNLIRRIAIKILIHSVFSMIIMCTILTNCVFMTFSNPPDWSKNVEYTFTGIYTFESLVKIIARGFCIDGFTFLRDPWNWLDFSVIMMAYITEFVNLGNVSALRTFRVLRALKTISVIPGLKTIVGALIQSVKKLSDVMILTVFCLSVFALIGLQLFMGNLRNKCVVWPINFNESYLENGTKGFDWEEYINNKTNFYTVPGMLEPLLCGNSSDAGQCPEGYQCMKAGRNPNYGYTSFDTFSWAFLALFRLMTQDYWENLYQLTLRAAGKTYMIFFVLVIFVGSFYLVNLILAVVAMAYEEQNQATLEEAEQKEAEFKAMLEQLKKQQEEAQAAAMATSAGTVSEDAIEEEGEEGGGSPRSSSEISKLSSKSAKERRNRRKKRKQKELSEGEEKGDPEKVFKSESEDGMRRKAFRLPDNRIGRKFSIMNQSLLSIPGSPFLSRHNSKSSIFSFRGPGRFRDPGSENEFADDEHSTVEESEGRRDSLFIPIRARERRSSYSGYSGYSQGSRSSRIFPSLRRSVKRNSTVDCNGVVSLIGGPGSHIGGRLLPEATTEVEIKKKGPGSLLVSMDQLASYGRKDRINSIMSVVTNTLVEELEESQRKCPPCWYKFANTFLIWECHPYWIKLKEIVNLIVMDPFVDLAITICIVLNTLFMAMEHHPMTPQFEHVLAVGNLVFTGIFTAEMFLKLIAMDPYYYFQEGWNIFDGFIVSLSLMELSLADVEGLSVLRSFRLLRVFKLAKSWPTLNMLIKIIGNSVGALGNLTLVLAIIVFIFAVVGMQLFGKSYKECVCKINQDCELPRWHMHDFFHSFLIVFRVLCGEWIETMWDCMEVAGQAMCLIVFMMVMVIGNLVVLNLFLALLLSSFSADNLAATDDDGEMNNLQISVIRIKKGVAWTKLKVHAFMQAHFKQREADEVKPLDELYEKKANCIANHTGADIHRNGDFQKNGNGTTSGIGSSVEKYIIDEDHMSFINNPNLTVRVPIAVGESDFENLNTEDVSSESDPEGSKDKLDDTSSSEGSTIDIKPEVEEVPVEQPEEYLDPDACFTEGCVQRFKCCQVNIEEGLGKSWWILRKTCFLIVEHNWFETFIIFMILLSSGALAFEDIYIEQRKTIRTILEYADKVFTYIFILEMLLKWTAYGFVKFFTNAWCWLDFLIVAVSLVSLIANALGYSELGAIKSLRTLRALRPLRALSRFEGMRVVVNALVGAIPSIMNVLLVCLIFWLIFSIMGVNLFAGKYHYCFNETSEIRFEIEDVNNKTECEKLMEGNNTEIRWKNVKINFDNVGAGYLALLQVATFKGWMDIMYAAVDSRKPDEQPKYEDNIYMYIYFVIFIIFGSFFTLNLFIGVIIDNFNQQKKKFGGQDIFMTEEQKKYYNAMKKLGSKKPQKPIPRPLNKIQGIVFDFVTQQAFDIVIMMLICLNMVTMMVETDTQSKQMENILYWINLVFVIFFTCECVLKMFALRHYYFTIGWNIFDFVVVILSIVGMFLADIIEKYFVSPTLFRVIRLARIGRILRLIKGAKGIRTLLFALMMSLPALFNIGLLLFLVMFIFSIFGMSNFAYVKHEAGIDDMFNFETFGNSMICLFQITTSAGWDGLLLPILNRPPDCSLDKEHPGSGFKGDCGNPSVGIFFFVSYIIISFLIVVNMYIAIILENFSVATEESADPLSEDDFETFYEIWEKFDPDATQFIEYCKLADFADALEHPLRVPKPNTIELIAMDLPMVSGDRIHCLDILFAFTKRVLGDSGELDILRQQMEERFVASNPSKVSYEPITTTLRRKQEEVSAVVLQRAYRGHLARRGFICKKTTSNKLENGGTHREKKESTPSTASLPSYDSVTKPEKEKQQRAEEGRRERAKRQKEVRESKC

Target: human Nav1.6 (hNav1.6) (Homo sapiens (Human), UniProt Q9UQD0)
Assay: Inhibition of late sodium current (INaL) at hNav1.6, PatchXpress electrophysiology
Assay type: cell-based
Conditions: HEK293, read-out: INaL v1.6 (1 μM, % Inhibition)
Procedure: Functional characterization of exemplary compounds to modulate INaL expressed by the Nav1.6 voltage-gated sodium channel was accomplished using the PatchXpress™ high throughput electrophysiology platform (Molecular Devices, Sunnyvale, CA). HEK-293 cells expressing recombinant, human Nav1.6 (hNav1.6)were grown in DMEM/high-glucose Dulbecco's modified, 10% FBS, 2 mM sodium pyruvate, 10 mM HEPES and 400 μg/mL G418. Cells were grown to 50%-80% confluency prior to harvesting. […] The onboard liquid handling facility of the PatchXpress was used for dispensing cells and applying test compounds. Nav late currents were evoked by the application of 300 nM ATX-II. […] INaL amplitude and stability were determined by analyzing the mean current amplitude over the final 20 ms of the test pulse. […] Percent steady-state inhibition of INaL was calculated as: [(INaL_compound)/(INaL_control)]*100, where INaL_compound and INaL_control represent INaL recorded in the presence or absence of compound, respectively.

## FC(F)(F)Oc1ccc(-c2ccc3nnc(CC4COC4)n3n2)cc1 [Compound 20]
  inhibition at 1 µM: < 30%
